Earlier results as cited in US20060025484A1 (priority 2003, published 2006).

How the values were obtained:
[1] = known for BCNU; cited from earlier work
[2] = known for BCNU; cited from earlier work; remark: listed apart in the source

In the case of bis-(2-chloroethyl)-1-nitrosourea, the Pulmonary fibroses [1] is listed as “can also cause pulmonary fibroses”, the “Toxicity for bone marrow and lungs” value [1] is listed as “high toxicity for bone marrow and the lungs” and the Solubility in water [2] is listed as “low solubility in water”.
